## Antibody variant affinities, Ab-14 light chain, assay 1

The target is the same throughout: PDVDLGDISGINAS, from the HR2 region of SARS-CoV-2 spike.

Parent: Ab-14, a human scFv built as VH, a (GGGGS)3 linker, VL. Only the CDRs of the light chain vary.
VH: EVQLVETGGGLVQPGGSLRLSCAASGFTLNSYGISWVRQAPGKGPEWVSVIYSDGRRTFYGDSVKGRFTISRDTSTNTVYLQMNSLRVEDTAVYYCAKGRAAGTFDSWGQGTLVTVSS
VL: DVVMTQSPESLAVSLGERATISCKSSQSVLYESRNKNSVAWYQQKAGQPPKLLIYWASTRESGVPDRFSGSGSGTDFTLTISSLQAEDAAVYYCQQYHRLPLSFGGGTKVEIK

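The library (AAYL50) carries one to three amino acid substitutions per variant, with no insertions or deletions. The scFvs were displayed on barcoded MATa yeast, the peptide on MATalpha yeast. Binding brings cells together so that they mate, and sequencing counts the barcode pairs among the diploids. Scores were corrected for input abundance and mapped to Kd with protein pairs of known affinity run in the same pool. The assay was run in three technical replicates.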

Positions count from residue 1 of the parent VL; K24W puts W in place of K.
Values are log10 of the apparent Kd in nM; lower means stronger binding.
"nd" marks a missing value. The strain was present, yet no cells mated with the target were sequenced in that replicate, which points to weak or no binding.
Nonspecific signal, from three strains lacking the peptide, appeared in 18% of pairings of library AAYL50, centred on 4.19 (5% of these signals below 2.99); values are not corrected for it. Also given: how often the same scFv was detected with the empty control strains, with their mean in brackets.
In this assay the parent's reference entry averaged 0.65; its copy inside this library read 1.68.

{"changes": "K24W/S58E/Q96E", "replicates, log10 nM": "1.95 1.78 1.52", "signal with controls": "0 of 9"}
{"changes": "V39M/E61F/L102G", "replicates, log10 nM": "nd nd nd", "signal with controls": "0 of 9"}
{"changes": "S38M/A40D/R99C", "replicates, log10 nM": "nd nd nd", "signal with controls": "1 of 9 (2.76)"}
{"changes": "S26P/L30C/N35C", "replicates, log10 nM": "1.15 1.25 1.01", "signal with controls": "0 of 9"}
{"changes": "S26T/E32D/R34T", "replicates, log10 nM": "0.24 0.40 0.35", "signal with controls": "1 of 9 (2.65)"}
{"changes": "N37C/R60Q/P101L", "replicates, log10 nM": "nd nd nd", "signal with controls": "0 of 9"}
{"changes": "S26F/S38F/E61D", "replicates, log10 nM": "nd nd nd", "signal with controls": "1 of 9 (3.60)"}
{"changes": "A57F/P101Q/L102W", "replicates, log10 nM": "nd 5.29 nd", "signal with controls": "6 of 9 (4.75)"}
{"changes": "Q27C", "replicates, log10 nM": "1.22 1.23 1.33", "signal with controls": "5 of 9 (4.55)"}
{"changes": "K36E/A40H/L100T", "replicates, log10 nM": "4.20 nd 4.35", "signal with controls": "2 of 9 (4.12)"}
{"changes": "Y31V/S38I/R99N", "replicates, log10 nM": "nd nd nd", "signal with controls": "2 of 9 (4.21)"}
{"changes": "S58H/Q95L/Q96A", "replicates, log10 nM": "nd 3.05 nd", "signal with controls": "1 of 9 (3.69)"}
{"changes": "L30G/S33W/S62Q", "replicates, log10 nM": "0.87 1.07 0.76", "signal with controls": "3 of 9 (3.39)"}
{"changes": "Q27R/Q95K", "replicates, log10 nM": "4.80 4.16 nd", "signal with controls": "3 of 9 (3.92)"}
{"changes": "V29H/A57W/L102R", "replicates, log10 nM": "nd nd nd", "signal with controls": "1 of 9 (2.71)"}
{"changes": "S28F/V29F/A40I", "replicates, log10 nM": "nd nd nd", "signal with controls": "2 of 9 (3.39)"}
{"changes": "V29E/E32C/K36A", "replicates, log10 nM": "1.97 1.88 1.99", "signal with controls": "0 of 9"}
{"changes": "S26Q/S33P/A57I", "replicates, log10 nM": "2.09 nd 1.49", "signal with controls": "0 of 9"}
{"changes": "N35P/S38M/P101G", "replicates, log10 nM": "nd nd nd", "signal with controls": "1 of 9 (3.81)"}
{"changes": "V29S/N35I/Y97F", "replicates, log10 nM": "2.42 2.14 2.77", "signal with controls": "1 of 9 (3.47)"}
{"changes": "S26T/R34E/A40Y", "replicates, log10 nM": "nd nd nd", "signal with controls": "0 of 9"}
{"changes": "V29Y/N37H/E61I", "replicates, log10 nM": "4.26 2.68 3.03", "signal with controls": "3 of 9 (3.86)"}
{"changes": "V39P/A57Q/Y97N", "replicates, log10 nM": "nd nd nd", "signal with controls": "0 of 9"}
{"changes": "S33Y/K36H/H98C", "replicates, log10 nM": "2.38 2.76 3.18", "signal with controls": "0 of 9"}
{"changes": "S33F/A57F/Q96H", "replicates, log10 nM": "nd nd nd", "signal with controls": "3 of 9 (4.25)"}

For reference, 3 entries of the list once more:

{"changes": "S26F/S38F/E61D", "replicates, log10 nM": "nd nd nd", "signal with controls": "1 of 9 (3.60)"}
{"changes": "S26T/R34E/A40Y", "replicates, log10 nM": "nd nd nd", "signal with controls": "0 of 9"}
{"changes": "V39P/A57Q/Y97N", "replicates, log10 nM": "nd nd nd", "signal with controls": "0 of 9"}

The measurements come from Engelhart et al. 2022 (doi:10.1038/s41597-022-01779-4) through the FLAb antibody collection.